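Test compounds were applied to cells in 96-well plates for 48 hours at 5 doses. GI50 marks 50% less growth. At the TGI there is no net growth.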
Experiments:
Assay in all cases: growth of human tumour cells (NCI), 48 h
786-0 renal = tested on: 786-0 renal
A498 renal = tested on: A498 renal
A549 NSCLC = tested on: A549 NSCLC
ACHN renal = tested on: ACHN renal
BT-549 breast = tested on: BT-549 breast
CAKI-1 renal = tested on: CAKI-1 renal
CCRF-CEM leukemia = tested on: CCRF-CEM leukemia
COLO 205 colon = tested on: COLO 205 colon
DU-145 prostate = tested on: DU-145 prostate
EKVX NSCLC = tested on: EKVX NSCLC
HCC-2998 colon = tested on: HCC-2998 colon
HCT-116 colon = tested on: HCT-116 colon
HCT-15 colon = tested on: HCT-15 colon
HL-60(TB) leukemia = tested on: HL-60(TB) leukemia
HOP-62 NSCLC = tested on: HOP-62 NSCLC
HOP-92 NSCLC = tested on: HOP-92 NSCLC
HS 578T breast = tested on: HS 578T breast
HT29 colon = tested on: HT29 colon
IGROV1 ovarian = tested on: IGROV1 ovarian
K-562 leukemia = tested on: K-562 leukemia
KM12 colon = tested on: KM12 colon
LOX IMVI melanoma = tested on: LOX IMVI melanoma
M14 melanoma = tested on: M14 melanoma
MALME-3M melanoma = tested on: MALME-3M melanoma
MCF7 breast = tested on: MCF7 breast
MDA-MB-231 breast = tested on: MDA-MB-231 breast
MDA-MB-435 = tested on: MDA-MB-435
MOLT-4 leukemia = tested on: MOLT-4 leukemia
NCI-H226 lung = tested on: NCI-H226 lung
NCI-H23 lung = tested on: NCI-H23 lung
NCI-H322M lung = tested on: NCI-H322M lung
NCI-H460 lung = tested on: NCI-H460 lung
NCI-H522 lung = tested on: NCI-H522 lung
NCI/ADR-RES ovarian = tested on: NCI/ADR-RES ovarian
OVCAR-3 ovarian = tested on: OVCAR-3 ovarian
OVCAR-4 ovarian = tested on: OVCAR-4 ovarian
OVCAR-5 ovarian = tested on: OVCAR-5 ovarian
OVCAR-8 ovarian = tested on: OVCAR-8 ovarian
PC-3 prostate = tested on: PC-3 prostate
RPMI-8226 leukemia = tested on: RPMI-8226 leukemia
RXF 393 renal = tested on: RXF 393 renal
SF-268 CNS = tested on: SF-268 CNS
SF-295 CNS = tested on: SF-295 CNS
SF-539 CNS = tested on: SF-539 CNS
SK-MEL-2 melanoma = tested on: SK-MEL-2 melanoma
SK-MEL-28 melanoma = tested on: SK-MEL-28 melanoma
SK-MEL-5 melanoma = tested on: SK-MEL-5 melanoma
SK-OV-3 ovarian = tested on: SK-OV-3 ovarian
SN12C renal = tested on: SN12C renal
SNB-19 CNS = tested on: SNB-19 CNS
SNB-75 CNS = tested on: SNB-75 CNS
SW-620 colon = tested on: SW-620 colon
T-47D breast = tested on: T-47D breast
TK-10 renal = tested on: TK-10 renal
U251 CNS = tested on: U251 CNS
UACC-257 melanoma = tested on: UACC-257 melanoma
UACC-62 melanoma = tested on: UACC-62 melanoma
UO-31 renal = tested on: UO-31 renal
MDA-N = tested on: MDA-N
SR leukemia = tested on: SR leukemia

O=[As]c1ccc(S(=O)(=O)Nc2ccccc2)cc1 (stereo not given)
GI50 (786-0 renal): 1.55 µM | TGI (786-0 renal): 2.95 µM | GI50 (A498 renal): 2.58 µM | TGI (A498 renal): 10.7 µM | GI50 (A549 NSCLC): 18.6 µM | TGI (A549 NSCLC): 37.6 µM | GI50 (ACHN renal): 1.8 µM | TGI (ACHN renal): 3.31 µM | GI50 (BT-549 breast): 1.73 µM | TGI (BT-549 breast): 3.13 µM | GI50 (CAKI-1 renal): 1.76 µM | TGI (CAKI-1 renal): 3.15 µM | GI50 (CCRF-CEM leukemia): 0.887 µM | TGI (CCRF-CEM leukemia): 3.46 µM | GI50 (COLO 205 colon): 1.58 µM | TGI (COLO 205 colon): 3.42 µM | GI50 (DU-145 prostate): 3.54 µM | TGI (DU-145 prostate): 12.3 µM | GI50 (EKVX NSCLC): 1.71 µM | TGI (EKVX NSCLC): 3.75 µM | GI50 (HCC-2998 colon): 2 µM | TGI (HCC-2998 colon): 4.06 µM | GI50 (HCT-116 colon): 1.93 µM | TGI (HCT-116 colon): 3.55 µM | GI50 (HCT-15 colon): 1.39 µM | TGI (HCT-15 colon): 2.99 µM | GI50 (HL-60(TB) leukemia): 1.27 µM | TGI (HL-60(TB) leukemia): 4.07 µM | GI50 (HOP-62 NSCLC): 2.89 µM | TGI (HOP-62 NSCLC): 8.84 µM | GI50 (HOP-92 NSCLC): 1.57 µM | TGI (HOP-92 NSCLC): 2.95 µM | GI50 (HS 578T breast): 2.87 µM | TGI (HS 578T breast): 17.2 µM | GI50 (HT29 colon): 2.43 µM | TGI (HT29 colon): 6.52 µM | GI50 (IGROV1 ovarian): 1.98 µM | TGI (IGROV1 ovarian): 4 µM | GI50 (K-562 leukemia): 1.12 µM | TGI (K-562 leukemia): 8.91 µM | GI50 (KM12 colon): 3.5 µM | TGI (KM12 colon): 12.4 µM | GI50 (LOX IMVI melanoma): 1.73 µM | TGI (LOX IMVI melanoma): 3.22 µM | GI50 (M14 melanoma): 2.03 µM | TGI (M14 melanoma): 4.04 µM | GI50 (MALME-3M melanoma): 1.67 µM | TGI (MALME-3M melanoma): 3.33 µM | GI50 (MCF7 breast): 1.19 µM | TGI (MCF7 breast): 3.31 µM | GI50 (MDA-MB-231 breast): 1.54 µM | TGI (MDA-MB-231 breast): 3.14 µM | GI50 (MDA-MB-435): 1.63 µM | TGI (MDA-MB-435): 3.08 µM | GI50 (MOLT-4 leukemia): 2.37 µM | TGI (MOLT-4 leukemia): 6.7 µM | GI50 (NCI-H226 lung): 2.06 µM | TGI (NCI-H226 lung): 4.71 µM | GI50 (NCI-H23 lung): 2.5 µM | TGI (NCI-H23 lung): 7.58 µM | GI50 (NCI-H322M lung): 7.46 µM | TGI (NCI-H322M lung): 20.3 µM | GI50 (NCI-H460 lung): 17.5 µM | TGI (NCI-H460 lung): 37.6 µM | GI50 (NCI-H522 lung): 0.18 µM | TGI (NCI-H522 lung): 0.504 µM | GI50 (NCI/ADR-RES ovarian): 6.25 µM | TGI (NCI/ADR-RES ovarian): 66.4 µM | GI50 (OVCAR-3 ovarian): 1.71 µM | TGI (OVCAR-3 ovarian): 3.16 µM | GI50 (OVCAR-4 ovarian): 1.89 µM | TGI (OVCAR-4 ovarian): 4.67 µM | GI50 (OVCAR-5 ovarian): 2.1 µM | TGI (OVCAR-5 ovarian): 4.05 µM | GI50 (OVCAR-8 ovarian): 2.75 µM | TGI (OVCAR-8 ovarian): 8.47 µM | GI50 (PC-3 prostate): 4.98 µM | TGI (PC-3 prostate): 16.7 µM | GI50 (RPMI-8226 leukemia): 1.61 µM | TGI (RPMI-8226 leukemia): 4.13 µM | GI50 (RXF 393 renal): 1.69 µM | TGI (RXF 393 renal): 3.06 µM | GI50 (SF-268 CNS): 1.75 µM | TGI (SF-268 CNS): 3.35 µM | GI50 (SF-295 CNS): 16.2 µM | TGI (SF-295 CNS): 30 µM | GI50 (SF-539 CNS): 1.69 µM | TGI (SF-539 CNS): 3.15 µM | GI50 (SK-MEL-2 melanoma): 1.81 µM | TGI (SK-MEL-2 melanoma): 3.38 µM | GI50 (SK-MEL-28 melanoma): 1.71 µM | TGI (SK-MEL-28 melanoma): 3.35 µM | GI50 (SK-MEL-5 melanoma): 1.88 µM | TGI (SK-MEL-5 melanoma): 3.71 µM | GI50 (SK-OV-3 ovarian): 11.9 µM | TGI (SK-OV-3 ovarian): 24.6 µM | GI50 (SN12C renal): 1.8 µM | TGI (SN12C renal): 3.49 µM | GI50 (SNB-19 CNS): 2.62 µM | TGI (SNB-19 CNS): 7.54 µM | GI50 (SNB-75 CNS): 1.53 µM | TGI (SNB-75 CNS): 2.87 µM | GI50 (SW-620 colon): 1.54 µM | TGI (SW-620 colon): 3.6 µM | GI50 (T-47D breast): 0.648 µM | TGI (T-47D breast): 3.33 µM | GI50 (TK-10 renal): 1.88 µM | TGI (TK-10 renal): 3.33 µM | GI50 (U251 CNS): 1.75 µM | TGI (U251 CNS): 3.36 µM | GI50 (UACC-257 melanoma): 1.72 µM | TGI (UACC-257 melanoma): 3.65 µM | GI50 (UACC-62 melanoma): 1.83 µM | TGI (UACC-62 melanoma): 3.42 µM | GI50 (UO-31 renal): 1.46 µM | TGI (UO-31 renal): 2.82 µM

CCOC(=O)NC(=S)N(C)P(=S)(OCC)N(C)C(=S)NC(=O)OCC
TGI (786-0 renal): > 100 µM | TGI (A498 renal): > 100 µM | TGI (A549 NSCLC): > 100 µM | TGI (ACHN renal): > 100 µM | TGI (BT-549 breast): > 100 µM | TGI (CAKI-1 renal): > 100 µM | TGI (CCRF-CEM leukemia): > 100 µM | TGI (COLO 205 colon): > 100 µM | TGI (DU-145 prostate): > 100 µM | TGI (EKVX NSCLC): > 100 µM | TGI (HCC-2998 colon): > 100 µM | TGI (HCT-116 colon): > 100 µM | TGI (HL-60(TB) leukemia): > 100 µM | TGI (HOP-62 NSCLC): > 100 µM | TGI (HOP-92 NSCLC): > 100 µM | TGI (HT29 colon): > 100 µM | TGI (IGROV1 ovarian): > 100 µM | TGI (K-562 leukemia): > 100 µM | TGI (KM12 colon): > 100 µM | TGI (LOX IMVI melanoma): > 100 µM | TGI (M14 melanoma): > 100 µM | TGI (MALME-3M melanoma): > 100 µM | TGI (MCF7 breast): > 100 µM | TGI (MDA-MB-231 breast): > 100 µM | TGI (MDA-MB-435): > 100 µM | TGI (MDA-N): > 100 µM | TGI (MOLT-4 leukemia): > 100 µM | TGI (NCI-H226 lung): > 100 µM | TGI (NCI-H23 lung): > 100 µM | TGI (NCI-H322M lung): > 100 µM | TGI (NCI-H522 lung): > 100 µM | TGI (NCI/ADR-RES ovarian): > 100 µM | TGI (OVCAR-3 ovarian): > 100 µM | TGI (OVCAR-4 ovarian): > 100 µM | TGI (OVCAR-5 ovarian): > 100 µM | TGI (OVCAR-8 ovarian): > 100 µM | TGI (PC-3 prostate): > 100 µM | TGI (RPMI-8226 leukemia): > 100 µM | TGI (RXF 393 renal): > 100 µM | TGI (SF-295 CNS): > 100 µM | TGI (SF-539 CNS): > 100 µM | TGI (SK-MEL-2 melanoma): > 100 µM | TGI (SK-MEL-28 melanoma): > 100 µM | TGI (SK-MEL-5 melanoma): > 100 µM | TGI (SK-OV-3 ovarian): > 100 µM | TGI (SN12C renal): > 100 µM | TGI (SNB-19 CNS): > 100 µM | TGI (SNB-75 CNS): > 100 µM | TGI (SR leukemia): > 100 µM | TGI (SW-620 colon): > 100 µM | TGI (U251 CNS): > 100 µM | TGI (UACC-257 melanoma): > 100 µM | TGI (UACC-62 melanoma): > 100 µM | TGI (UO-31 renal): > 100 µM
